Experimental findings from EP4675276A1 are described below.

Chains of the proteins cited; added tags and fusions are not shown. Residues count along the entry.
UniProt P69905, 2-142, chain 1 of 2: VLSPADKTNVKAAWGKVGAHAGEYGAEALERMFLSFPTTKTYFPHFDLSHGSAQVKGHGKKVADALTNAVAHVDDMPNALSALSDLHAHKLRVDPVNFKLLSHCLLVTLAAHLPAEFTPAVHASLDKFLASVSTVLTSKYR

The target of experiment [1] is human hemoglobin (human) (UniProt P69905). Briefly: cell-based or functional assay.
For experiment [2] the target is unchanged. Briefly: OC-Hemodia Auto III immunoassay, Hb 6.2 pmol/mL, Hpt 6.2 pmol/mL (1 Unit), no stool, initial value.
The target is the same in experiment [3]. Briefly: OC-Hemodia Auto III immunoassay, Hb 6.2 pmol/mL, Hpt 3.1 pmol/mL (0.5 Unit), no stool, initial value.
Experiment [4] has the same target. The experiment can be described thus: OC-Hemodia Auto III immunoassay, Hb 9.3 pmol/mL, Hpt 9.3 pmol/mL (1 Unit), 0.5% feces, initial value.
Experiment [5] has the same target. The experiment can be described thus: OC-Hemodia Auto III immunoassay, Hb 6.2 pmol/mL, Hpt 1.55 pmol/mL (0.25 Unit), no stool, initial value.
Experiment [6] shares this target. Briefly: OC-Hemodia Auto III immunoassay, Hb 9.3 pmol/mL, Hpt 4.65 pmol/mL (0.5 Unit), 0.5% feces, initial value.
Experiment [7] shares this target. The experiment can be described thus: OC-Hemodia Auto III immunoassay, Hb 6.2 pmol/mL, Hpt 0.775 pmol/mL (0.125 Unit), no stool, initial value.
For experiment [8] the target is unchanged. The experiment can be described thus: OC-Hemodia Auto III immunoassay, Hb 9.3 pmol/mL, Hpt 2.325 pmol/mL (0.25 Unit), 0.5% feces, initial value.

B1: Porcine dHpt (PNGase) (protein)
chain: AETGNEATDATDDSCPKPPEIPKGYVEHMVRYHCQTYYKLRTAGDGVYTLDSNKQWTNKVTGEKLPECEAVCGKPKNPVDQVQRIMGGSLDAKGSFPWQAKMISHHNLTSGATLINEQWLLTTAKNLRLGHKNDTKAKDIAPTLRLYVGKKQEVEIEKVIFHPDNSTVDIGLIKLKQKVPVNERVMPICLPSKDYVNVGLVGYVSGWGRNANLNFTEHLKYVMLPVADQEKCVQYYEGSTVPEKKTPKSPVGVQPILNEHTFCAGLSKYQEDTCYGDAGSAFAVHDKDDDTWYAAGILSFDKSCRTAEYGVYVRVTSILDWIQTTIADN
modifications: N-linked glycans (Asn 125, 151, 183, 232 of SEQ ID NO: 4) removed with PNGase F
For the molecule B1, in the experiment with human hemoglobin (human) [1], the Residual Hb ratio (%), 37°C 7 days, Hpt 0.775 pmol/mL (0.125 Unit), no stool came out at 41%; the Residual Hb ratio (%), 37°C 7 days, Hpt 1.55 pmol/mL (0.25 Unit), no stool came out at 45%; the Residual Hb ratio (%), 37°C 7 days, Hpt 2.325 pmol/mL (0.25 Unit), 0.5% feces came out at 19%; the Residual Hb ratio (%), 37°C 7 days, Hpt 3.1 pmol/mL (0.5 Unit), no stool came out at 58%. Moreover, in the experiment with human hemoglobin (human) [1], the Residual Hb ratio (%), 37°C 7 days, Hpt 4.65 pmol/mL (0.5 Unit), 0.5% feces came to 34%; the Residual Hb ratio (%), 37°C 7 days, Hpt 6.2 pmol/mL (1 Unit), no stool is 88%; the Residual Hb ratio (%), 37°C 7 days, Hpt 9.3 pmol/mL (1 Unit), 0.5% feces is 69%; the Residual Hb ratio (%), 37°C 14 days, Hpt 0.775 pmol/mL (0.125 Unit), no stool was determined as 23%. Also, in the experiment with human hemoglobin (human) [1], the Residual Hb ratio (%), 37°C 14 days, Hpt 1.55 pmol/mL (0.25 Unit), no stool is 34%; the Residual Hb ratio (%), 37°C 14 days, Hpt 2.325 pmol/mL (0.25 Unit), 0.5% feces came to 16%; the Residual Hb ratio (%), 37°C 14 days, Hpt 3.1 pmol/mL (0.5 Unit), no stool was 58%; the Residual Hb ratio (%), 37°C 14 days, Hpt 4.65 pmol/mL (0.5 Unit), 0.5% feces turned out to be 32%. For the same molecule, in the experiment with human hemoglobin (human) [1], the Residual Hb ratio (%), 37°C 14 days, Hpt 6.2 pmol/mL (1 Unit), no stool was found to be 87%; the Residual Hb ratio (%), 37°C 14 days, Hpt 9.3 pmol/mL (1 Unit), 0.5% feces stood at 67%; the residual Hb ratio, 1 Unit of Hpt, 37°C 7 days, no stool was > 70%. For the same molecule, the Ratio to no Hpt addition (%) with human hemoglobin (human) [2] stood at 78%. Besides, the Ratio to no Hpt addition (%) with human hemoglobin (human) [3] stood at 89%. In the experiment with human hemoglobin (human) [4], the Ratio to no Hpt addition (%) was 81%. Also, in the experiment with human hemoglobin (human) [5], the Ratio to no Hpt addition (%) was 95%. Further, in the experiment with human hemoglobin (human) [6], the Ratio to no Hpt addition (%) was determined as 91%. For the same molecule, the Ratio to no Hpt addition (%) in the experiment with human hemoglobin (human) [7] was 97%. Further, in the experiment with human hemoglobin (human) [8], the Ratio to no Hpt addition (%) was 95%.

B2: Porcine dHpt (ENGase) (protein)
chain: B1 chain
modifications: N-linked glycans (Asn 125, 151, 183, 232 of SEQ ID NO: 4) cut with Endo F2; by the description one GlcNAc, with or without fucose, remains
As for B2, in the experiment with human hemoglobin (human) [1], the Residual Hb ratio (%), 37°C 7 days, Hpt 0.775 pmol/mL (0.125 Unit), no stool amounted to 45%; the Residual Hb ratio (%), 37°C 7 days, Hpt 1.55 pmol/mL (0.25 Unit), no stool amounted to 46%; the Residual Hb ratio (%), 37°C 7 days, Hpt 2.325 pmol/mL (0.25 Unit), 0.5% feces came out at 18%; the Residual Hb ratio (%), 37°C 7 days, Hpt 3.1 pmol/mL (0.5 Unit), no stool is 55%. Further, in the experiment with human hemoglobin (human) [1], the Residual Hb ratio (%), 37°C 7 days, Hpt 4.65 pmol/mL (0.5 Unit), 0.5% feces was found to be 30%; the Residual Hb ratio (%), 37°C 7 days, Hpt 6.2 pmol/mL (1 Unit), no stool was found to be 86%; the Residual Hb ratio (%), 37°C 7 days, Hpt 9.3 pmol/mL (1 Unit), 0.5% feces came to 57%; the Residual Hb ratio (%), 37°C 14 days, Hpt 0.775 pmol/mL (0.125 Unit), no stool amounted to 24%. In addition, in the experiment with human hemoglobin (human) [1], the Residual Hb ratio (%), 37°C 14 days, Hpt 1.55 pmol/mL (0.25 Unit), no stool came out at 33%; the Residual Hb ratio (%), 37°C 14 days, Hpt 2.325 pmol/mL (0.25 Unit), 0.5% feces worked out at 16%; the Residual Hb ratio (%), 37°C 14 days, Hpt 3.1 pmol/mL (0.5 Unit), no stool turned out to be 54%; the Residual Hb ratio (%), 37°C 14 days, Hpt 4.65 pmol/mL (0.5 Unit), 0.5% feces came out at 29%. In the experiment with human hemoglobin (human) [1], the Residual Hb ratio (%), 37°C 14 days, Hpt 6.2 pmol/mL (1 Unit), no stool worked out at 88%; the Residual Hb ratio (%), 37°C 14 days, Hpt 9.3 pmol/mL (1 Unit), 0.5% feces stood at 56%; the residual Hb ratio, 1 Unit of Hpt, 37°C 7 days, no stool is > 70%. Besides, the Ratio to no Hpt addition (%) in the experiment with human hemoglobin (human) [2] stood at 88%. Further, the Ratio to no Hpt addition (%) in the experiment with human hemoglobin (human) [3] came to 94%. In the experiment with human hemoglobin (human) [4], the Ratio to no Hpt addition (%) worked out at 94%. Moreover, the Ratio to no Hpt addition (%) with human hemoglobin (human) [5] was 96%. Besides, in the experiment with human hemoglobin (human) [6], the Ratio to no Hpt addition (%) turned out to be 98%. For the same molecule, the Ratio to no Hpt addition (%) with human hemoglobin (human) [7] was found to be 98%. In addition, in the experiment with human hemoglobin (human) [8], the Ratio to no Hpt addition (%) was determined as 100%.
